Assay results reported in publication PMC8742647 (Clinical and Translational Science, 2021).

Legend:
[1] = prediction of CLt,human by single-species allometric scaling from PXB-mice; design: species or system humans
[2] = prediction of CLt,human by multispecies allometric scaling, rule of exponent
[3] = prediction of CLt,human by in vitro–in vivo extrapolation; design: species or system humans
[4] = prediction of CLt,human by physiologically based scaling using PXB-mice; design: species or system humans
[5] = for Fold error (predicted/observed), FCIM: predicted/observed CLt,human
[6] = ref Table S1; cited from earlier work
[7] = fraction unbound in plasma, equilibrium dialysis; format: in vitro ADME, humans; settings: fraction unbound in human plasma
[8] = fraction unbound in rat plasma; ref Table S1; cited from earlier work

Row | SMILES | Fold error (predicted/observed), PXB‐SSS [1] | Fold error (predicted/observed), ROE [2] | Fold error (predicted/observed), IVIVE [3] | Fold error (predicted/observed), PXB‐PBS [4] | Predicted CLt,human, FCIM ([5]; from CLt in rats, monkeys and dogs and fu,p ratio rat/human) | Fold error (predicted/observed), FCIM [5] | CLt, Monkeys [6] | f u,p, Humans [7] | f u,p, Rats [8]
1 | CC(C)N(CCC(C(N)=O)(c1ccccc1)c1ccccn1)C(C)C (centres unmarked) [Disopyramide] | 4.14 | 8.17 | 1.38 | 5.15 | 4.56 mL/min/kg | 5.06 | – | – | –
2 | CC(=O)C[C@@H](c1ccccc1)c1c(O)c2ccccc2oc1=O [(S)‐Warfarin] | – | – | – | – | – | – | 0.102 mL/min/kg | – | –
3 | COc1ccccc1Oc1c(NS(=O)(=O)c2ccc(C(C)(C)C)cc2)nc(-c2ncccn2)nc1OCCO [Bosentan] | 0.56 | 0.80 | 0.32 | 0.66 | – | 2.56 | – | 0.023 | 0.012
